Reference: PubChem BioAssay AID588591 (National Center for Advancing Translational Sciences (NCATS), 2011)
The list shows a part of the results, in another mix than the full data. Records with an inconclusive call do not appear. Active and inactive are the calls of the source. Calls follow the shape of the dose curve; as a rule, active = well fitted inhibition curve with a large enough effect; inconclusive = small, poorly fitted or top-dose-only effect, or another doubt; inactive = no such curve, though single readings can be large or run the other way.

By UniProt entry, the sequences of proteins in these tests, tags left out.
UniProt Q9Y253, whole entry: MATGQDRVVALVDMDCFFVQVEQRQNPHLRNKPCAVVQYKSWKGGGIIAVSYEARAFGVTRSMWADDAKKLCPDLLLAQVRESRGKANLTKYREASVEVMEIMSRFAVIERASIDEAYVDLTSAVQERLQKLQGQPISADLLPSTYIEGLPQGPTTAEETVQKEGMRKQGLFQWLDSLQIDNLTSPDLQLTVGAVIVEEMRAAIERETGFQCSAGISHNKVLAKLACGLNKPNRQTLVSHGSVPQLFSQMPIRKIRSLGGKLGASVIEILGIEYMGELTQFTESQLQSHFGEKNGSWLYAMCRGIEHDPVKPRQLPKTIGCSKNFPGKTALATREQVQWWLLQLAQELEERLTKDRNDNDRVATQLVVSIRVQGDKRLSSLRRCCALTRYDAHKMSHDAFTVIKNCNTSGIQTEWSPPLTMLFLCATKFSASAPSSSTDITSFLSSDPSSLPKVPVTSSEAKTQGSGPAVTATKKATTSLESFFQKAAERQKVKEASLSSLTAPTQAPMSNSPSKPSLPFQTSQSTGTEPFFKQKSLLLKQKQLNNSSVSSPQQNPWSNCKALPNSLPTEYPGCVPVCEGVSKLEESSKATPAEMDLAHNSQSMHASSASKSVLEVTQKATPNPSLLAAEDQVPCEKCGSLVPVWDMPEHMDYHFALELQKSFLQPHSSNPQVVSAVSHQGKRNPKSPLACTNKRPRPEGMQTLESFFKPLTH

Each molecule was assayed against DNA polymerase eta (Homo sapiens) (UniProt Q9Y253) (assay: qHTS for Inhibitors of Polymerase Eta). Conditions: recombinant Pol eta, fluorescent DNA replication assay; at 114 µM (top of the series).
% is scaled to controls: 0 for no effect and ±100 for the full control effect.

SMILES | activity change, negative = inhibition
CCC(=O)N(c1ccccc1)C1(COC)CCN(CCn2nnn(CC)c2=O)CC1 | inactive: -6.06%
